This note sets out measurements from article PMC8886048, “The Non-phosphorylating Glyceraldehyde-3-Phosphate Dehydrogenase GapN Is a Potential New Drug Target in Streptococcus pyogenes” (Frontiers in Microbiology, 2022).

This data set relates to NADP. Description: purified protein, by the assay type. To be noted: other: Strep-tagged GapN; ± standard error printed (0.05 NADP; 0.19 DL-G3P).

What is called Km is the concentration of substrate that gives half-maximal velocity. As for “S. pyogenes GapN (Streptococcus pyogenes serotype M1)”, the Km worked out at 360 µM.
